Assay results reported in PubChem BioAssay AID602179 (National Center for Advancing Translational Sciences (NCATS), 2012).
The list shows a part of the results, in another mix than the full data. Some salts or complexes appear as unconnected parts, following the source record. Activity calls are given as the source filed them. The call rests on the fitted dose curve; in most records, active means well fitted inhibition curve with a large enough effect; inconclusive means small, poorly fitted or top-dose-only effect; inactive means no such curve, though single readings can be large or run the other way.

Protein sequences, listed by entry. Tags and fused reporters are not part of them.
UniProt O75874, whole entry R132H: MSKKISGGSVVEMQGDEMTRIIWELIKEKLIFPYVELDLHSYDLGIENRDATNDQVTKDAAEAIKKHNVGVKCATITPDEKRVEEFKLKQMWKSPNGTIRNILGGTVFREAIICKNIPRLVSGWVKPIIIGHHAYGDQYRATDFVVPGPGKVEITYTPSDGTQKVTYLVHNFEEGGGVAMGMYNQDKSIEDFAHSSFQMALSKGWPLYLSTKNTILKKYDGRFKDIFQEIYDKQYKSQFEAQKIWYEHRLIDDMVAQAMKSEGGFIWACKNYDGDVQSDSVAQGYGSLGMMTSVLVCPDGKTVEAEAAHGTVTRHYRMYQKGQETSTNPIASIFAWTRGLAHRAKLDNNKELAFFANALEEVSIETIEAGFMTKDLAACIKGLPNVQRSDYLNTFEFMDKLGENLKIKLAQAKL

These molecules were tested against Isocitrate dehydrogenase [NADP] cytoplasmic (Homo sapiens) (UniProt O75874) (assay: qHTS for Inhibitors of mutant isocitrate dehydrogenase 1 (IDH1): qHTS). Conditions: IDH1-R132H enzyme, NADPH consumption, diaphorase/resazurin fluorescence; at 76.6 µM (top of the series).
Source text: Unbiased genomic sequencing for 22 glioma genomes found recurrent mutation of isocitrate dehydrogenase 1 (IDH1) on chromosome 2q33-a gene encoding the cytosolic isoform of IIDH1associated with the tricarboxylic acid cycle (TCA) that catalyzes the oxidative decarboxylation of isocitrate, yielding alpha-ketoglutarate and CO2 via NADP+ to NADPH conversion. Subsequent studies confirmed the recurrent IDH mutations in up to 70% of secondary gliomas and in 10% of AML cases. […] This in effect defines IDH1 as an oncogene, and provides an extraordinary opportunity to discover chemical probes against mutant IDH1 that may translate into much needed new therapies for glioma and AML patients. […] NIH Chemical Genomics Center [NCGC] NIH Molecular Libraries Probe Centers Network [MLPCN] MLPCN Grant: DA032129 Assay Submitter (PI): Lenny Dang, Agios Pharmaceuticals
IDH1-R132H (0.5 ug/mL) was dispensed into black, solid-bottom 1536-well plates at 3 uL/well in 20 mM Tris-HCl (pH 7.5), 150 mM NaCl, 10 mM MgCl2, 4 mM beta-ME, and 0.05% protease-free BSA. Then, 23 nL of compounds or DMSO were delivered to each well using a pin tool. A pre-read was run on the Viewlux to identify fluorescent compounds (540 nm excitation filter, 598 nm emission filter, bodipy mirror and 2 second exposure). After 30 minutes of incubation with compound, 3 uL of substrate mix were dispensed (0.016 mM NADPH, 2 mM alpha-KG, 20 mM Tris-HCl (pH 7.5), 150 mM NaCl, 10 mM MgCl2, and 0.05% protease-free BSA). Plates were spun for 1 min at 1000xg and incubated at room temperature for 80 min. Then 1.5 uL of each detection reagent component for the coupling system were added (0.12 mg/mL diaphorase and 0.072 mM resazurin, each in 20 mM Tris-HCl (pH 7.5), 150 mM NaCl, 10 mM MgCl2, and 0.05% protease-free BSA ) The protein, substrate and two detection components were maintained at 4 °C throughout the screen. Additionally, the substrate and resazurin reagents were protected from light. The plates were measured on an Envision plate reader for fluorescence signal using a 540 nm excitation filter and 590 nm emission filter with 10 flashes. 1x and 0x (no-enzyme) IDH1-R132H enzyme control were used to normalize %Activity of identified inhibitors; 0x enzyme values corresponded to 100% Activity (full inhibition), while 1x IDH1-R132H enzyme values were used to normalize 0%Activity (no inhibition). Concentration-response curves were fitted to the signals arising from the resulting fluorescence. The concentration-effect curves were then classified based on curve quality (r2), response magnitude and degree of measured activity, and compounds were subsequently categorized based on their curve class. […] Keywords: isocitrate dehydrogenase, IDH1, IDH1-R132H, MLSMR, MLPCN, NIH Roadmap, qHTS, NCGC
Further: nearly all actives have a fitted effect of over 65% in size.

**Q.** Which activity change, negative = inhibition does the source give for CCCCOc1ccc(C(=O)NCC2(N3CCOCC3)CCCCC2)cc1 here?
**A.** Its activity change, negative = inhibition is inactive: 4.85%.

**Q.** How did the activity change, negative = inhibition turn out when COc1ccc(NC2CCN(CCc3ccccc3)CC2)c(OC)c1 was run?
**A.** The activity change, negative = inhibition was inactive: 10.3%.

**Q.** For CCOC(=O)N1CCC(Nc2ccc(F)cc2)CC1, which activity change, negative = inhibition is on record?
**A.** Its activity change, negative = inhibition is inactive: -10.6%.

**Q.** For COc1ccccc1C(=O)NCC1(N2CCOCC2)CCCCC1, which activity change, negative = inhibition is on record?
**A.** Its activity change, negative = inhibition is inactive: -3.66%.

**Q.** With O=C(NCC1(N2CCOCC2)CCCCC1)c1cc2ccccc2o1 as the molecule, how does the activity change, negative = inhibition read?
**A.** Its activity change, negative = inhibition is inactive: 4.11%.

**Q.** O=C(NCC1(N2CCCCC2)CCCCC1)c1ccc(Cl)nc1 was tested. Which activity change, negative = inhibition did it give?
**A.** Its activity change, negative = inhibition is inactive: -1.12%.

**Q.** For Cc1cc(C)cc(N(C(=O)c2ccccc2)C2CCN(C(=O)OC(C)(C)C)CC2)c1, which activity change, negative = inhibition is on record?
**A.** Its activity change, negative = inhibition is inactive: -2.53%.

**Q.** How did the activity change, negative = inhibition turn out when CCOC(=O)N1CCC(Nc2ccc(OC)cc2)CC1 was run?
**A.** Its activity change, negative = inhibition is inactive: 3.67%.

**Q.** Which activity change, negative = inhibition does the source give for O=C(OC1CN2CCC1CC2)C1c2ccccc2Oc2ccccc21 (centres undefined) here?
**A.** The activity change, negative = inhibition was inactive: 7.6%.

**Q.** Which activity change, negative = inhibition does the source give for O=C(NCC1(N2CCCCC2)CCCCC1)c1ccc(Cl)s1 here?
**A.** Its activity change, negative = inhibition is inactive: 6.63%.

**Q.** For N#CC1(Nc2ccccc2)CCN(Cc2ccccc2)CC1, which activity change, negative = inhibition is on record?
**A.** Its activity change, negative = inhibition is inactive: -3.64%.

**Q.** For O=C1C(O)=C([N+](=O)[O-])C(=O)C(O)=C1[N+](=O)[O-], which activity change, negative = inhibition is on record?
**A.** The activity change, negative = inhibition was inactive: -9.15%.

**Q.** Which activity change, negative = inhibition does the source give for COc1ccc(Cl)cc1C(=O)NCC1(N2CCOCC2)CCCCC1 here?
**A.** The activity change, negative = inhibition was inactive: 10.6%.

**Q.** With O=C(NCC1(N2CCCCC2)CCCCC1)c1ccc(=O)[nH]c1 as the molecule, how does the activity change, negative = inhibition read?
**A.** Its activity change, negative = inhibition is inactive: 0%.

**Q.** Which activity change, negative = inhibition does the source give for O=C(NCC1(N2CCCCC2)CCCCC1)c1cccs1 here?
**A.** The activity change, negative = inhibition was inactive: 3.32%.

**Q.** COc1ccc(C(=O)NCC2(N3CCCCC3)CCCCC2)cc1 was tested. Which activity change, negative = inhibition did it give?
**A.** The activity change, negative = inhibition was inactive: -2.83%.

**Q.** How did the activity change, negative = inhibition turn out when COc1ccc(C(=O)NCC2(N3CCCCC3)CCCCC2)c(OC)c1OC was run?
**A.** The activity change, negative = inhibition was inactive: -11.1%.

**Q.** For CC(C)(C)OC(=O)N1CCC(N(C(=O)c2ccccc2)c2ccc(F)cc2)CC1, which activity change, negative = inhibition is on record?
**A.** Its activity change, negative = inhibition is inactive: -5.64%.

**Q.** For CSc1ccccc1C(=O)NCC1(N2CCCCC2)CCCCC1, which activity change, negative = inhibition is on record?
**A.** Its activity change, negative = inhibition is inactive: -8.95%.

**Q.** With Cc1cccc(NC2(C#N)CCN(Cc3ccccc3)CC2)c1 as the molecule, how does the activity change, negative = inhibition read?
**A.** Its activity change, negative = inhibition is inactive: 3.32%.

**Q.** O=C(NCC1(N2CCCCC2)CCCCC1)c1cncc(Br)c1 was tested. Which activity change, negative = inhibition did it give?
**A.** The activity change, negative = inhibition was inactive: 0.216%.

**Q.** With COc1ccc2c(c1O)-c1c(O)c(OC)cc3c1[C@H](C2)[N+](C)(C)CC3.O=[N+]([O-])c1cc([N+](=O)[O-])c([O-])c([N+](=O)[O-])c1[O-] as the molecule, how does the activity change, negative = inhibition read?
**A.** The activity change, negative = inhibition was inactive: 15.2%.

**Q.** For CN1CCC(Nc2cccc(F)c2)CC1, which activity change, negative = inhibition is on record?
**A.** The activity change, negative = inhibition was inactive: 4.2%.

**Q.** How did the activity change, negative = inhibition turn out when O=C(OC1CN2CCC1CC2)c1ccc([N+](=O)[O-])cc1 (centres undefined) was run?
**A.** The activity change, negative = inhibition was inactive: -1.71%.

**Q.** Cc1ccc(C(=O)NCC2(N(C)C)CCCCC2)o1 was tested. Which activity change, negative = inhibition did it give?
**A.** Its activity change, negative = inhibition is inactive: 8.02%.

**Q.** For CCCCOc1ccccc1C(=O)NCC1(N2CCOCC2)CCCCC1, which activity change, negative = inhibition is on record?
**A.** Its activity change, negative = inhibition is inactive: -0.775%.

**Q.** For CCCOc1ccc(C(=O)NCC2(N(C)C)CCCCC2)cc1OC, which activity change, negative = inhibition is on record?
**A.** Its activity change, negative = inhibition is inactive: 3.82%.

**Q.** How did the activity change, negative = inhibition turn out when O=C(NCC1(N2CCOCC2)CCCCC1)c1ccccc1Br was run?
**A.** Its activity change, negative = inhibition is inactive: 21.3%.

**Q.** How did the activity change, negative = inhibition turn out when O=[N+]([O-])c1cc([N+](=O)[O-])c(Nc2ccc(Cl)cc2)c([N+](=O)[O-])c1 was run?
**A.** Its activity change, negative = inhibition is inactive: 9.77%.

**Q.** How did the activity change, negative = inhibition turn out when COc1ccc(CN(CCCl)CCCl)cc1Cl was run?
**A.** Its activity change, negative = inhibition is inactive: -7.43%.

**Q.** For O=[N+]([O-])c1cc([N+](=O)[O-])c(OC2CCCCC2O)c([N+](=O)[O-])c1 (centres undefined), which activity change, negative = inhibition is on record?
**A.** Its activity change, negative = inhibition is inactive: -0.665%.

**Q.** With CN(C)c1cccc(C(=O)NCC2(N3CCCCC3)CCCCC2)c1 as the molecule, how does the activity change, negative = inhibition read?
**A.** Its activity change, negative = inhibition is inactive: 6.58%.

**Q.** Which activity change, negative = inhibition does the source give for CC(C)c1ccc(NC2CCN(C(=O)OC(C)(C)C)CC2)cc1 here?
**A.** The activity change, negative = inhibition was inactive: 8.76%.

**Q.** For COc1cc(OC)c(C(=O)NCC2(N(C)C)CCCCC2)cc1OC, which activity change, negative = inhibition is on record?
**A.** The activity change, negative = inhibition was inactive: -10.7%.

**Q.** O=C(NCC1(N2CCOCC2)CCCCC1)c1cc(F)c(F)cc1Cl was tested. Which activity change, negative = inhibition did it give?
**A.** Its activity change, negative = inhibition is inactive: -1.79%.

**Q.** With CCCOc1cccc(C(=O)NCC2(N3CCOCC3)CCCCC2)c1 as the molecule, how does the activity change, negative = inhibition read?
**A.** The activity change, negative = inhibition was inactive: 9.74%.

**Q.** O=C(NCC1(N2CCCCC2)CCCCC1)c1cccc(C(F)(F)F)c1 was tested. Which activity change, negative = inhibition did it give?
**A.** Its activity change, negative = inhibition is inactive: 0%.

**Q.** For O=[N+]([O-])c1cc([N+](=O)[O-])c(NCC2CCS(=O)(=O)C2)c([N+](=O)[O-])c1 (centres undefined), which activity change, negative = inhibition is on record?
**A.** The activity change, negative = inhibition was inactive: 11.7%.

**Q.** How did the activity change, negative = inhibition turn out when CN1CCN(CCOC(=O)C(O)(c2ccccc2)c2ccccc2)CC1 was run?
**A.** Its activity change, negative = inhibition is inactive: -1.86%.

**Q.** COc1ccc(NC2CCN(C(=O)OC(C)(C)C)CC2)cc1 was tested. Which activity change, negative = inhibition did it give?
**A.** The activity change, negative = inhibition was inactive: -0.268%.

**Q.** Which activity change, negative = inhibition does the source give for CC(C)c1ccc(C(=O)NCC2(N3CCOCC3)CCCCC2)cc1 here?
**A.** Its activity change, negative = inhibition is inactive: 9.87%.

**Q.** With COc1cc(C(=O)NCC2(N3CCCCC3)CCCCC2)ccc1OC(F)F as the molecule, how does the activity change, negative = inhibition read?
**A.** The activity change, negative = inhibition was inactive: 2.55%.

**Q.** With O=C(NCC1(N2CCOCC2)CCCCC1)c1cc(=O)[nH]c2ccccc12 as the molecule, how does the activity change, negative = inhibition read?
**A.** The activity change, negative = inhibition was inactive: 0.83%.

**Q.** With O=C(NCC1(N2CCCCC2)CCCCC1)c1ccc(OC(F)F)cc1 as the molecule, how does the activity change, negative = inhibition read?
**A.** The activity change, negative = inhibition was inactive: -2.23%.

**Q.** For CCOc1ccc(C(=O)NCC2(N3CCOCC3)CCCCC2)cc1, which activity change, negative = inhibition is on record?
**A.** The activity change, negative = inhibition was inactive: -0.544%.

**Q.** For O=C(NCC1(N2CCCCC2)CCCCC1)c1cccc([N+](=O)[O-])c1, which activity change, negative = inhibition is on record?
**A.** The activity change, negative = inhibition was inactive: 6.03%.

**Q.** How did the activity change, negative = inhibition turn out when CSc1ccc(C(=O)NCC2(N3CCOCC3)CCCCC2)cc1 was run?
**A.** Its activity change, negative = inhibition is inactive: 7.35%.

**Q.** For CCN1CCC(Nc2ccc(Cl)cc2)CC1, which activity change, negative = inhibition is on record?
**A.** Its activity change, negative = inhibition is inactive: -4.84%.

**Q.** N#CC1(Nc2ccccc2)CCN(CCc2ccccc2)CC1 was tested. Which activity change, negative = inhibition did it give?
**A.** The activity change, negative = inhibition was inactive: 0.263%.
